Measurements reported in US9242970B2 (ACTELION PHARMACEUTICALS LTD., priority 2010, dated 2016).

Sequences of proteins named here, by UniProt entry; tags and fusion partners are left off.
UniProt O43613, whole entry: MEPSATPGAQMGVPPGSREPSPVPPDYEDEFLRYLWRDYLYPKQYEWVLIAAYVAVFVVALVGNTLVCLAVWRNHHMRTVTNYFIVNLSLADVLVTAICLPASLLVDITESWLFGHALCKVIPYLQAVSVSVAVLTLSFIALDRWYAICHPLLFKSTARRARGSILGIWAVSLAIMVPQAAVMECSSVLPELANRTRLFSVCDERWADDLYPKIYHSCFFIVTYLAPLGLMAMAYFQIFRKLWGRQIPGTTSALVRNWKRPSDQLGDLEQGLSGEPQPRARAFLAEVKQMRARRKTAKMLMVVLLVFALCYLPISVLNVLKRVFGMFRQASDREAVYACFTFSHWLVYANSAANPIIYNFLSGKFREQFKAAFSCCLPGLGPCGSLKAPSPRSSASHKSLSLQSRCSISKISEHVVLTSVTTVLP
UniProt O43614, whole entry: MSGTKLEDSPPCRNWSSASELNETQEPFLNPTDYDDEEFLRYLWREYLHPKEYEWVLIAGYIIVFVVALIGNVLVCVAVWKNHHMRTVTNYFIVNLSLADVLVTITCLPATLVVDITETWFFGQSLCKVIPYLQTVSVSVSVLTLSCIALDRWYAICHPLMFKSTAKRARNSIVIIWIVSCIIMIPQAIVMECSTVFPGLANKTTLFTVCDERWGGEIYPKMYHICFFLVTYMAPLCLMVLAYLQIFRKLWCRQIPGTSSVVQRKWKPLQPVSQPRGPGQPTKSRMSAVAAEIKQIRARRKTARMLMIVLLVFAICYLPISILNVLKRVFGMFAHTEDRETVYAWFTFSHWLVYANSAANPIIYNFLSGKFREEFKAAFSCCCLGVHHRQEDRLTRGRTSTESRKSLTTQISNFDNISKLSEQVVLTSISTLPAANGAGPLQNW

Target: human orexin-1 receptor (Homo sapiens (Human), UniProt O43613)
Experiment: In vitro assay: intracellular calcium measurements (FLIPR), antagonistic activity
Format: cell-based
Settings: CHO cells, 3 nM orexin-A, compound incubation 120 min; marked values are geometric means of n = 2-6; read-out: IC50 OX1
Procedure: (§1) In Vitro Assay: Intracellular Calcium Measurements:
(§2) Chinese hamster ovary (CHO) cells expressing the human orexin-1 receptor and the human orexin-2 receptor, respectively, are grown in culture medium (Ham F-12 with L-Glutamine) containing 300 µg/ml G418, 100 U/ml penicillin, 100 µg/ml streptomycin and 10% heat inactivated fetal calf serum (FCS). The cells are seeded at 20,000 cells/well into 384-well black clear bottom sterile plates (Greiner). The seeded plates are incubated overnight at 37° C. in 5% CO2.
(§3) Fluorescence is measured for each well at 1 second intervals, and the height of each fluorescence peak is compared to the height of the fluorescence peak induced by 3 nM orexin-A with vehicle in place of antagonist. […] Optimized conditions were achieved by adjustment of pipetting speed and cell splitting regime. The calculated IC50 values may fluctuate depending on the daily cellular assay performance. Fluctuations of this kind are known to those skilled in the art.

| Compound | IC50 [nM] |
| --- | --- |
| COc1cc(F)ccc1[C@@H]1C[C@H](F)C(=O)N1Cc1ccc(OC(F)(F)F)cc1 (racemic) [Example 303, rac-(3S*,5S*)-3-fluoro-5-(4-fluoro-2-methoxyphenyl)-1-(4-(trifluoromethoxy)benzyl)pyrrolidin-2-one] | 1380 |
| COc1cc(F)ccc1[C@@H]1C[C@H](Cl)C(=O)N1Cc1ccc(OC(F)(F)F)cc1 (racemic) [Example 308, rac-(3S*,5S*)-3-chloro-5-(4-fluoro-2-methoxyphenyl)-1-(4-(trifluoromethoxy)benzyl)pyrrolidin-2-one] | 567 |
| CCOc1c(F)cccc1[C@@H]1C[C@@H](O)C(=O)N1Cc1ccc(OC(F)(F)F)cc1 (racemic) [Example 310, rac-(3R*,5S*)-5-(2-ethoxy-3-fluorophenyl)-3-hydroxy-1-(4-(trifluoromethoxy)benzyl)pyrrolidin-2-one] | 1200 |
| COc1ccc(F)c(OC)c1[C@@H]1C[C@@H](O)C(=O)N1Cc1ccc(OC(F)(F)F)cc1 (racemic) [Example 311, rac-(3R*,5S*)-5-(3-fluoro-2,6-dimethoxyphenyl)-3-hydroxy-1-(4-(trifluoromethoxy)benzyl)pyrrolidin-2-one] | 1370 |

Target: human orexin-2 receptor (Homo sapiens (Human), UniProt O43614)
Experiment: as above
Format: cell-based
Settings: CHO cells, 3 nM orexin-A, compound incubation 120 min; marked values are geometric means of n = 2-6; read-out: IC50 OX2
Procedure: as §1, §2, §3

| Compound | IC50 [nM] |
| --- | --- |
| COc1cccc(F)c1[C@@H]1C[C@@H](O)C(=O)N1Cc1ccc(OC(F)(F)F)cc1 (racemic) [Example 293, rac-(3R*,5S*)-5-(2-fluoro-6-methoxyphenyl)-3-hydroxy-1-(4-(trifluoromethoxy)benzyl)pyrrolidin-2-one] | 338 |
| COc1cccc(Cl)c1[C@@H]1C[C@@H](O)C(=O)N1Cc1ccc(OC(F)(F)F)cc1 (racemic) [Example 294, rac-(3R*,5S*)-5-(2-chloro-6-methoxyphenyl)-3-hydroxy-1-(4-(trifluoromethoxy)benzyl)pyrrolidin-2-one] | 294 |
| COc1ccc2ccccc2c1[C@@H]1C[C@H](F)C(=O)N1Cc1ccc(OC(F)(F)F)cc1 (racemic) [Example 315, rac-(3S*,5S*)-3-fluoro-5-(2-methoxynaphthalen-1-yl)-1-(4-(trifluoromethoxy)benzyl)pyrrolidin-2-one] | 552 |
| COc1c(F)ccc(F)c1[C@@H]1C[C@@H](Cl)C(=O)N1Cc1ccc(OC(F)(F)F)cc1 (racemic) [Example 317, rac-(3R*,5S*)-3-chloro-5-(3,6-difluoro-2-methoxyphenyl)-1-(4-(trifluoromethoxy)benzyl)pyrrolidin-2-one] | 1410 |
| COc1c(F)ccc(F)c1[C@@H]1C[C@H](Cl)C(=O)N1Cc1ccc(OC(F)(F)F)cc1 (racemic) [Example 320, rac-(3S*,5S*)-3-chloro-5-(3,6-difluoro-2-methoxyphenyl)-1-(4-(trifluoromethoxy)benzyl)pyrrolidin-2-one] | 219 |
| COc1cccc(C)c1[C@@H]1C[C@H](F)C(=O)N1Cc1ccc(OC(F)(F)F)cc1 (racemic) [Example 325, rac-(3S*,5S*)-3-fluoro-5-(2-methoxy-6-methylphenyl)-1-(4-(trifluoromethoxy)benzyl)pyrrolidin-2-one] | 178 |
| CCOc1c(F)cccc1[C@@H]1C[C@@H](Cl)C(=O)N1Cc1ccc(OC(F)(F)F)cc1 (racemic) [Example 327, rac-(3R*,5S*)-3-chloro-5-(2-ethoxy-3-fluorophenyl)-1-(4-(trifluoromethoxy)benzyl)pyrrolidin-2-one] | 1760 |
| COc1ccc(F)c(OC)c1[C@@H]1C[C@@H](Cl)C(=O)N1Cc1ccc(OC(F)(F)F)cc1 (racemic) [Example 328, rac-(3R*,5S*)-3-chloro-5-(3-fluoro-2,6-dimethoxyphenyl)-1-(4-(trifluoromethoxy)benzyl)pyrrolidin-2-one] | 1790 |
| CCOc1c(F)cccc1[C@@H]1C[C@H](Cl)C(=O)N1Cc1ccc(OC(F)(F)F)cc1 (racemic) [Example 329, rac-(3S*,5S*)-3-chloro-5-(2-ethoxy-3-fluorophenyl)-1-(4-(trifluoromethoxy)benzyl)pyrrolidin-2-one] | 528 |
| COc1ccc(F)c(OC)c1[C@@H]1C[C@H](Cl)C(=O)N1Cc1ccc(OC(F)(F)F)cc1 (racemic) [Example 330, rac-(3S*,5S*)-3-chloro-5-(3-fluoro-2,6-dimethoxyphenyl)-1-(4-(trifluoromethoxy)benzyl)pyrrolidin-2-one] | 197 |
| CCOc1cc(F)ccc1[C@@H]1C[C@H](F)C(=O)N1Cc1ccc(OC(F)(F)F)cc1 (racemic) [Example 344, rac-(3S*,5S*)-5-(2-ethoxy-4-fluorophenyl)-3-fluoro-1-(4-(trifluoromethoxy)benzyl)pyrrolidin-2-one] | 392 |
| COc1cccc(OC)c1[C@@H]1C[C@H](F)C(=O)N1Cc1ccc2oc3ccccc3c2c1 (racemic) [Example 367, rac-(3S*,5S*)-1-(dibenzo[b,d]furan-2-ylmethyl)-5-(2,6-dimethoxyphenyl)-3-fluoropyrrolidin-2-one] | 1 |
| COc1cccc(OC)c1[C@@H]1C[C@@H](F)C(=O)N1Cc1ccc2oc3ccccc3c2c1 (racemic) [Example 368, rac-(3R*,5S*)-1-(dibenzo[b,d]furan-2-ylmethyl)-5-(2,6-dimethoxyphenyl)-3-fluoropyrrolidin-2-one] | 40 |
| COc1cccc(F)c1[C@@H]1C[C@@H](F)C(=O)N1Cc1ccc2oc3ccccc3c2c1 (racemic) [Example 395, rac-(3R*,5S*)-1-(dibenzo[b,d]furan-2-ylmethyl)-3-fluoro-5-(2-fluoro-6-methoxyphenyl)pyrrolidin-2-one] | 7 |
| COc1cccc(F)c1[C@@H]1C[C@H](F)C(=O)N1Cc1ccc2oc3ccccc3c2c1 (racemic) [Example 406, rac-(3S*,5S*)-1-(dibenzo[b,d]furan-2-ylmethyl)-3-fluoro-5-(2-fluoro-6-methoxyphenyl)pyrrolidin-2-one] | 2 |
| CC(C)Oc1cccc(F)c1[C@@H]1C[C@H](F)C(=O)N1Cc1ccc(OC(F)(F)F)cc1 (racemic) [Example 407, rac-(3S*,5S*)-3-fluoro-5-(2-fluoro-6-isopropoxyphenyl)-1-(4-(trifluoromethoxy)benzyl)pyrrolidin-2-one] | 11 |
| CC(C)Oc1cccc(F)c1[C@@H]1C[C@H](Cl)C(=O)N1Cc1ccc(OC(F)(F)F)cc1 (racemic) [Example 409, rac-(3S*,5S*)-3-chloro-5-(2-fluoro-6-isopropoxyphenyl)-1-(4-(trifluoromethoxy)benzyl)pyrrolidin-2-one] | 25 |
| CCOc1cccc(Cl)c1[C@@H]1C[C@@H](O)C(=O)N1Cc1ccc(OC(F)(F)F)cc1 (racemic) [Example 427, rac-(3R*,5S*)-5-(2-chloro-6-ethoxyphenyl)-3-hydroxy-1-(4-(trifluoromethoxy)benzyl)pyrrolidin-2-one] | 75 |
| COc1cccc(F)c1[C@@H]1C[C@@H](O)C(=O)N1Cc1cccc(OC(F)(F)F)c1 (racemic) [Example 430, rac-(3R*,5S*)-5-(2-fluoro-6-methoxyphenyl)-3-hydroxy-1-(3-(trifluoromethoxy)benzyl)pyrrolidin-2-one] | 152 |
| CCOc1cccc(F)c1[C@@H]1C[C@H](F)C(=O)N1Cc1ccc(OC(F)(F)F)c(Cl)c1 (racemic) [Example 461, rac-(3S*,5S*)-1-(3-chloro-4-(trifluoromethoxy)benzyl)-5-(2-ethoxy-6-fluorophenyl)-3-fluoropyrrolidin-2-one] | 4 |
| CCOc1cccc(F)c1[C@@H]1C[C@H](Cl)C(=O)N1Cc1ccc(OC(F)(F)F)c(Cl)c1 (racemic) [Example 462, rac-(3S*,5S*)-3-chloro-1-(3-chloro-4-(trifluoromethoxy)benzyl)-5-(2-ethoxy-6-fluorophenyl)pyrrolidin-2-one] | 22 |
| COc1cccc(F)c1[C@@H]1C[C@H](F)C(=O)N1Cc1cccc(OC(F)(F)F)c1 (racemic) [Example 463, rac-(3S*,5S*)-3-fluoro-5-(2-fluoro-6-methoxyphenyl)-1-(3-(trifluoromethoxy)benzyl)pyrrolidin-2-one] | 93 |

Same assay, conditions: CHO cells, 3 nM orexin-A, compound incubation time of 10 min; marked values are geometric means of n = 2-6; read-out: IC50 OX2

| Compound | IC50 [nM] |
| --- | --- |
| COc1cccc(OC)c1[C@@H]1C[C@H](O)C(=O)N1Cc1ccc(OC(F)(F)F)cc1 (racemic) [Example 253, rac-(3S*,5S*)-5-(2,6-dimethoxyphenyl)-3-hydroxy-1-(4-(trifluoromethoxy)benzyl)pyrrolidin-2-one] | 670 |
| COc1cccc(OC)c1[C@@H]1C[C@@H](F)C(=O)N1Cc1ccc(OC(F)(F)F)cc1 (racemic) [Example 255, rac-(3R*,5S*)-5-(2,6-dimethoxyphenyl)-3-fluoro-1-(4-(trifluoromethoxy)benzyl)pyrrolidin-2-one] | 242 |
| COc1cccc(OC)c1[C@@H]1C[C@@H](O)C(=O)N1Cc1ccc(OC(F)(F)F)cc1 (racemic) [Example 258, rac-(3R*,5S*)-5-(2,6-dimethoxyphenyl)-3-hydroxy-1-(4-(trifluoromethoxy)benzyl)pyrrolidin-2-one] | 59 |
| COc1cccc(OC)c1[C@@H]1C[C@H](F)C(=O)N1Cc1ccc(OC(F)(F)F)cc1 (racemic) [Example 260, rac-(3S*,5S*)-5-(2,6-dimethoxyphenyl)-3-fluoro-1-(4-(trifluoromethoxy)benzyl)pyrrolidin-2-one] | 19 |
| COc1cccc(F)c1[C@@H]1C[C@H](O)C(=O)N1Cc1ccc(OC(F)(F)F)cc1 (racemic) [Example 265, rac-(3S*,5S*)-5-(2-fluoro-6-methoxyphenyl)-3-hydroxy-1-(4-(trifluoromethoxy)benzyl)pyrrolidin-2-one] | 1090 |
